Antibody variant affinities, Ab-14 heavy chain, assay 1

From the AlphaSeq antibody data of Engelhart et al. 2022 (doi:10.1038/s41597-022-01779-4), copy in the FLAb collection.

Binding partner: SARS-CoV-2 spike HR2 peptide, sequence PDVDLGDISGINAS.

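The starting antibody came from a phage panning campaign against this peptide. The library (AAYL49) carries one to three amino acid substitutions per variant, with no insertions or deletions. AlphaSeq pools MATa yeast showing the antibodies with MATalpha yeast showing the peptide. The frequency of each diploid, read from paired DNA barcodes, reflects how well the two displayed proteins bind. The ratio of observed to expected reads was calibrated, replicate by replicate, on BCL2-family standards whose Kd was known from biolayer interferometry. Each pool was mated in three replicate cultures.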

Ab-14 is the parent antibody, in scFv form: VH, then a (GGGGS)3 linker, then VL. The light chain is unchanged in all variants.
VH: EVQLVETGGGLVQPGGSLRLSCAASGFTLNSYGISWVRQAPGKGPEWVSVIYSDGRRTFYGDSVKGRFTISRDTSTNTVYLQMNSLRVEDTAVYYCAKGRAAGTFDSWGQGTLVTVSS
VL: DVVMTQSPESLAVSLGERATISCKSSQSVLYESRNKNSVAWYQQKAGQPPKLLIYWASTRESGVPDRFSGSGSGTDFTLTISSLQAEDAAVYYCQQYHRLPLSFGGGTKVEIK

Variants are written as CDR1, CDR2 and CDR3 of the heavy chain (limits as in the source). Parent: GFTLNSYGIS, VIYSDGRRTFYGDSVK, GRAAGTFDS.
Every variant below is changed at F27 of the VH (sequential numbering).
Kd is apparent (estimated from mating counts) and averaged on the log scale over replicates with a signal. Smaller is tighter.
A pair that was not seen in any replicate is written "nd"; this usually means weak binding, but a binder can also be missed.
As a blank, each scFv also met three strains without target: over library AAYL49, 15% of these pairings were detected, typically at 11 µM and seldom below 680 nM.

- GHTLNSYGIS | FIYSDGRRTFYGDSVK | GRAIGTFDS = 2.9 µM (1 of 3 replicates)
- GDTLNSYKIS | VIYSDGRRTFYGDSVK | GRAAGGFDS = 3.0 µM (1 of 3 replicates)
- GQTLNSYGIS | VIYSDGRRCFYGDSHK | GRAAGTFDS = nd (0 of 3 replicates)
- GRTLNSYGIS | VIYSDGRRTFYGDSVK | GRFAGTFES = 630 nM (1 of 3 replicates)
- GASLNSYGIS | VVYSDGRRTFYGDSVK | GRAAGTFDS = 1.6 µM (1 of 3 replicates)
- GDTLNWYGIS | VIYSDGRRTFYGWSVK | GRAAGTFDS = 200 nM (1 of 3 replicates)
- GETLNSYGIS | VIYSCGRRTFYGDSTK | GRAAGTFDS = 39 µM (1 of 3 replicates)
- GLTLNSYGIS | VGYSDGRRTKYGDSVK | GRAAGTFDS = 520 nM (2 of 3 replicates)
- GSTLNSYGIM | VIYSFGRRTFYGDSVK | GRAAGTFDS = nd (0 of 3 replicates)
- GMTLNSYGIS | VILSDGTRTFYGDSVK | GRAAGTFDS = nd (0 of 3 replicates)
- GNTLNSYGIS | VIYSDGRRTFYGDSFK | GRAAGTFDE = 17 nM (3 of 3 replicates)
- GKTLNSGGIS | VIYSDGRRTFYGDSVK | GRAAGTFMS = 26 µM (2 of 3 replicates)
- GHTLNSYGIS | VIYSDGRRTGYGDSVK | GRAVGTFDS = 780 µM (2 of 3 replicates)
- GNTLNSYGIS | VIYSDGRRKFYGDSVK | GRASGTFDS = 240 µM (1 of 3 replicates)
- GKNLNSYGQS | VIYSDGRRTFYGDSVK | GRAAGTFDS = nd (0 of 3 replicates)
- GGTLNSYGIS | VIHSDGRRTFYGDSVK | GRAAGTSDS = 320 µM (1 of 3 replicates)
- GMTLNSHGIS | VIYSDGRRTFYGDSVK | GRAAGTFDS = 1.3 µM (3 of 3 replicates)
- GWTLNSYGIS | NIYSDIRRTFYGDSVK | GRAAGTFDS = 2.1 µM (1 of 3 replicates)
- GWTLNSYGIS | SIYSDGRRTFYGGSVK | GRAAGTFDS = 690 nM (1 of 3 replicates)
- GDTLNSYGIS | VIYSDTRRTFYGDSVK | WRAAGTFDS = nd (0 of 3 replicates)
- GATLNSLGIS | VIYSDGRRTFYGDSVK | YRAAGTFDS = 16 µM (2 of 3 replicates)
- GVTLNSYGIS | VIYSDGARTFIGDSVK | GRAAGTFDS = 91 µM (3 of 3 replicates)
- GVTLNSYGIS | VIYSDPRRTFYGDSVK | GRAAGTFDS = nd (0 of 3 replicates)
- GHILNSYGIS | VIYSDGRRTFPGDSVK | GRAAGTFDS = 380 nM (2 of 3 replicates)
- GDALNSYGIW | VIYSDGRRTFYGDSVK | GRAAGTFDS = nd (0 of 3 replicates)
- GKTLNSYGIS | VIYTDGRRGFYGDSVK | GRAAGTFDS = 1.4 µM (3 of 3 replicates)
- GVTLNSYGIS | VIYSMGRRTFYGDSVK | GRAADTFDS = 160 nM (1 of 3 replicates)
- GNTLNSYGIV | VIYSDGRRTFVGDSVK | GRAAGTFDS = nd (0 of 3 replicates)
- GMTLNSYGIS | VIYSDGRMTFYGDSVK | GTAAGTFDS = nd (0 of 3 replicates)
- GETLNSYGTS | VIYSDYRRTFYGDSVK | GRAAGTFDS = 77 µM (3 of 3 replicates)
- GVTLNSYGIS | VIYSDGRRTFHGDFVK | GRAAGTFDS = nd (0 of 3 replicates)
- GETLNSYGIV | VIYSDGRRTFYGDSVK | GRAAGTFDS = 63 nM (3 of 3 replicates)
- GTTLNSYGIS | VIYSDVRRTFYGDSVK | GRAAGTFDD = nd (0 of 3 replicates)
- GMTLNSYGIS | VIYSDGRRTFYGVSVK | GRAAGTFDS = nd (0 of 3 replicates)
- GKTLNSPGIS | VIYSDGRRTFYGDSVK | GRAAGTFDS = 4.3 µM (3 of 3 replicates)
- GGTLNSYGIS | VIYSDGRRTFYGDAVK | GRAAGTFDS = 120 nM (3 of 3 replicates)
- GTTLNSYGIS | VIYSDGRRTFYWDSVK | GMAAGTFDS = 12 µM (1 of 3 replicates)
- GLTLPSYGIS | VIYSDGRRTFYGDSVK | GRAAGTSDS = nd (0 of 3 replicates)
- GLTLNSYGIS | VIYSDGRRHFYGDLVK | GRAAGTFDS = nd (0 of 3 replicates)
- GRNLNSYGIS | VIYSDGRRTFYGDYVK | GRAAGTFDS = 1.9 µM (1 of 3 replicates)
- GDTLNSYGIS | VIYSDGRRTFYGDFVK | GDAAGTFDS = 280 nM (2 of 3 replicates)
- GSNLNSYGIS | VIYSDGLRTFYGDSVK | GRAAGTFDS = 190 nM (3 of 3 replicates)
- GDTLNSYGIS | VIYSDGRRTFYGDSVH | GRAAGTFDS = 230 nM (3 of 3 replicates)
- GTTLQSYGIS | VIYSDGRRTFYGDSVK | GRAAGQFDS = 46 nM (3 of 3 replicates)
- GATENSYGIS | VIYSDGRRTFYGDSVK | GRAAGTFDS = 6.4 µM (1 of 3 replicates)
- GNTLNSYGIS | VIYSDGRRTFYGDSVK | GRAAGTFDA = nd (0 of 3 replicates)
- GSTLNSYGHS | VIYSDGRRTFCGDSVK | GRAAGTFDS = nd (0 of 3 replicates)
- GGTLNSYGIS | VIYSDGRRFFYSDSVK | GRAAGTFDS = 490 nM (3 of 3 replicates)
- GMTLNSYGIS | VIYSDGPRTFYGDSVK | GRAAGTFDK = nd (0 of 3 replicates)

For reference, the parent read 4.4 nM as the reference entry and 13 µM (one replicate of three) as a member of this library.